For one compound, CLH results are on record in ChEMBL document CHEMBL3526124, “Optimized experimental design for the estimation of enzyme kinetic parameters: an experimental evaluation” (Drug Metab Dispos, 2012).

The subject of this series is Liver microsome. The experiment in a line: Drug metabolism in human liver microsomes assessed as intrinsic clearance per mg protein by optimal design approach.

Consider `O=C(O)Cc1ccccc1Nc1c(Cl)cccc1Cl` [DICLOFENAC], for which the CLH is 135 µL/min/g.
